Earlier results as cited in patent US20250099481A1, “BCL-2 INHIBITORS” (Newave Pharmaceutical Inc., priority 2022, published 2025).

Sequences of proteins named here, by UniProt entry; tags and fusion partners are left off.
UniProt Q07820, whole entry: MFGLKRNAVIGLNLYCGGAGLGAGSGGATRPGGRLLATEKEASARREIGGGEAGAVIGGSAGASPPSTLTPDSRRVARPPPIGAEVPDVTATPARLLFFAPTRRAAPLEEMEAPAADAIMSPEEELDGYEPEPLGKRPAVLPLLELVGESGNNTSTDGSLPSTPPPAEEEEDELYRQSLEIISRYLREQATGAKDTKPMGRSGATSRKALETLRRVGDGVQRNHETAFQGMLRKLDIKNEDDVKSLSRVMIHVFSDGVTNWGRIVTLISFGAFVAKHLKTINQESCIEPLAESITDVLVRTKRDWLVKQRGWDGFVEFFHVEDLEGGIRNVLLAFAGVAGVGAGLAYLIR

Target: Mcl-1 (Homo sapiens, UniProt Q07820)

Substance: ABT-199
- activity to Mcl-1: no activity
